# In ChEMBL document CHEMBL4402583, “Rational Substitution of ε-Lysine for α-Lysine Enhances the Cell and Membrane Selectivity of Pore-Forming Melittin” (J Med Chem, 2020):
# How the values were obtained:
# Format in all cases: functional
# [1] = test system: Staphylococcus aureus; experiment: Antibacterial activity against methicillin-resistance Staphylococcus aureus assessed as reduction in bacterial growth incubated for 24 hrs by broth microdilution method
# [2] = test system: Staphylococcus aureus; experiment: Antibacterial activity against methicillin-sensitive Staphylococcus aureus assessed as reduction in bacterial growth incubated for 24 hrs by broth microdilution method
# [3] = test system: Pseudomonas aeruginosa; experiment: Antibacterial activity against Pseudomonas aeruginosa assessed as reduction in bacterial growth incubated for 24 hrs by broth microdilution method
# [4] = test system: Staphylococcus aureus; experiment: Antibacterial activity against Staphylococcus aureus assessed as reduction in bacterial growth incubated for 24 hrs by broth microdilution method
compound,measurement,setting,value
CC[C@H](C)[C@H](NC(=O)CN)C(=O)NCC(=O)N[C@@H](C)C(=O)N[C@H](C(=O)N[C@@H](CC(C)C)C(=O)N[C@@H](CCCCN)C(=O)N[C@H](C(=O)N[C@@H](CC(C)C)C(=O)N[C@H](C(=O)N[C@H](C(=O)NCC(=O)N[C@@H](CC(C)C)C(=O)N1CCC[C@H]1C(=O)N[C@@H](C)C(=O)N[C@@H](CC(C)C)C(=O)N[C@H](C(=O)N[C@@H](CO)C(=O)N[C@@H](Cc1c[nH]c2ccccc12)C(=O)N[C@H](C(=O)N[C@@H](CCCCN)C(=O)N[C@@H](CCCNC(=N)N)C(=O)N[C@@H](CCCCN)C(=O)N[C@@H](CCCNC(=N)N)C(=O)N[C@@H](CCC(N)=O)C(=O)N[C@@H](CCC(N)=O)C(N)=O)[C@@H](C)CC)[C@@H](C)CC)[C@@H](C)O)[C@@H](C)O)C(C)C)C(C)C [MELITTIN],MIC,[1],4 to 8 µg/mL
same,MIC,[2],4 to 8 µg/mL
same,MIC,[3],4 to 32 µg/mL
same,MIC,[4],4 to 8 µg/mL
